For experiment [1], the target named is MAPK14 (human) (UniProt Q16539). Briefly: Inhibition of MAPK14 Kinase Activity.
For experiment [2], the target named is CDK2 (UniProt P24941). Briefly: Enzyme Assay.
Experiment [3] addresses PIK3CB (Human) (UniProt P42338). Briefly: Enzyme Assay.
Experiment [4] addresses ROCK2 (human) (UniProt O75116). Briefly: Assessment of ROCK2 Kinase Activity.

Amino acid sequences for entries named in this document (tags omitted). A change or cut given only in a name is not applied to a line headed by its entry.
UniProt Q16539, whole entry, looked up: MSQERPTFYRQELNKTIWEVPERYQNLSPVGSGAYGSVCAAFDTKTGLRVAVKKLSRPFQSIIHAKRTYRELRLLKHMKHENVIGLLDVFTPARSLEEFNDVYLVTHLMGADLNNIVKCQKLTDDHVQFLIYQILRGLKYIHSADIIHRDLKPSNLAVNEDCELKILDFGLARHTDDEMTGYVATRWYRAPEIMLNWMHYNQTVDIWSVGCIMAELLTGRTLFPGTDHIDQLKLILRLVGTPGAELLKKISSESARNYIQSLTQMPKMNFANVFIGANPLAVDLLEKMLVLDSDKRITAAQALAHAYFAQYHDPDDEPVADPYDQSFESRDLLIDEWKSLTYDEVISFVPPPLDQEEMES
UniProt P42338: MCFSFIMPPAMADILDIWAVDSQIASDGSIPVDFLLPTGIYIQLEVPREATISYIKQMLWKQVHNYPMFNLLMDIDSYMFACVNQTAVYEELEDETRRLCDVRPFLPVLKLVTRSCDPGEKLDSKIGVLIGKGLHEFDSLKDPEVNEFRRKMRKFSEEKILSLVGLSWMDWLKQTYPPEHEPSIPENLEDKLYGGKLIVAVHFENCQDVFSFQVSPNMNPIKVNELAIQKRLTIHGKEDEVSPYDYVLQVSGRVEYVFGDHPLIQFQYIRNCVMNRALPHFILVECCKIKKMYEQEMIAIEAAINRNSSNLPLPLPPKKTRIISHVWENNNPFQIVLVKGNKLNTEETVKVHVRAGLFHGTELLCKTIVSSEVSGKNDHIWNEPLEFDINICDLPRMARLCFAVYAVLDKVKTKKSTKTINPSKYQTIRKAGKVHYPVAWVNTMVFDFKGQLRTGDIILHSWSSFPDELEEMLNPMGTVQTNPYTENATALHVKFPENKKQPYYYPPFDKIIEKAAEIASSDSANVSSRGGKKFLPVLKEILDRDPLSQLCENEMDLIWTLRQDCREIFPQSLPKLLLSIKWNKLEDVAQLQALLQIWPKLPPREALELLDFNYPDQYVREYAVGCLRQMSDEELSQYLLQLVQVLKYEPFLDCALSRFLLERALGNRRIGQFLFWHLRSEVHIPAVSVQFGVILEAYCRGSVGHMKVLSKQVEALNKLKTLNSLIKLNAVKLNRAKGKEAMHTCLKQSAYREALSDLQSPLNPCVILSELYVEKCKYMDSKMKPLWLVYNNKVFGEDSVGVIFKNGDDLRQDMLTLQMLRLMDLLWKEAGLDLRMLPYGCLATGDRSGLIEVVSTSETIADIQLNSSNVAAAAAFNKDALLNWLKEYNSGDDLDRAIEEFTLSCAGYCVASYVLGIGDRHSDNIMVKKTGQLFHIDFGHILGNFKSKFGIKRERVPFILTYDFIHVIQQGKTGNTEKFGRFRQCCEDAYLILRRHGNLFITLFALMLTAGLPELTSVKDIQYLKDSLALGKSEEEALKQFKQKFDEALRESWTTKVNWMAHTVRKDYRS
UniProt O75116: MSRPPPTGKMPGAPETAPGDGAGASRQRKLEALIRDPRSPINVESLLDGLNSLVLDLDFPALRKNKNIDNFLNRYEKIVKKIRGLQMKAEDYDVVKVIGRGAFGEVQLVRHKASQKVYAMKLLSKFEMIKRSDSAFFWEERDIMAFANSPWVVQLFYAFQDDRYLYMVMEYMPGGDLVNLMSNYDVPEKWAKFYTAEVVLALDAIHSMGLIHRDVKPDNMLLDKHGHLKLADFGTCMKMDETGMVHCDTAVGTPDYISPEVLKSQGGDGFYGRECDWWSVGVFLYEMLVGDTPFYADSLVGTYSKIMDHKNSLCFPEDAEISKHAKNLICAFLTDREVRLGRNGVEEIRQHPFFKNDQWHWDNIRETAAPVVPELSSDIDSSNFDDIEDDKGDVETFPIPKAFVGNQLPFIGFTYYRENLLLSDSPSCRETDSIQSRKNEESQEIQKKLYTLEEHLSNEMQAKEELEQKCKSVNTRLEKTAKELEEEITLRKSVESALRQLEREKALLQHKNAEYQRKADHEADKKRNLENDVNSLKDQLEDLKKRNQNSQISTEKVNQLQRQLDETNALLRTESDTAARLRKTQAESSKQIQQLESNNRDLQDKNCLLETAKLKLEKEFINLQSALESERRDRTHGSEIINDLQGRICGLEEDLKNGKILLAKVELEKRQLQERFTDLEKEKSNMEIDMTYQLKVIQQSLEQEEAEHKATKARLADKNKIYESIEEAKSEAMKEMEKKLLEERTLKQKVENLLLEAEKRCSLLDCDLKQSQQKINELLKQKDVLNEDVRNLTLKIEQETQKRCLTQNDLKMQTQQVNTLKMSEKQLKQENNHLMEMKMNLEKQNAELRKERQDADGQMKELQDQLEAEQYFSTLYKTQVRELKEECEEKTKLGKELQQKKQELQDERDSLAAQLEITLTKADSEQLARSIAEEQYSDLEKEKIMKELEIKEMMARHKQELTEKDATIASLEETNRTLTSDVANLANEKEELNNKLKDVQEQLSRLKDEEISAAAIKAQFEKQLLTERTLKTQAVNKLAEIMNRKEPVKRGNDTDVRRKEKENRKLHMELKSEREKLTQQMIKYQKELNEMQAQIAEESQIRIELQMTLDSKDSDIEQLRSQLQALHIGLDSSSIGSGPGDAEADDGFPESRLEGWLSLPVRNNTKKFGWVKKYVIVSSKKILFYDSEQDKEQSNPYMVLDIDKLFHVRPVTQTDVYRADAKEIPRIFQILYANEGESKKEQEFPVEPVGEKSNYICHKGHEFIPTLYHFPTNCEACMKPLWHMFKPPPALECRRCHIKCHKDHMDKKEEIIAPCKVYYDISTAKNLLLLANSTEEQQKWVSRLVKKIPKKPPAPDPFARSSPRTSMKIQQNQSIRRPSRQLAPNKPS

By pIC50 is commonly meant the negative decadic logarithm of the IC50, by convention in mol/L. A high value points to a low IC50.

pIC50: −log10 of the molar value. Some results are limits rather than exact numbers.

As to `CNC(=O)Nc1cnccc1COc1ccc(NC(=O)Nc2cc(C(C)(C)C)nn2-c2ccc(C)cc2)c2ccccc12`, in experiment [1], the pIC50 is more than 8.00.

As to `O=c1ccc2cnc(Nc3ccccc3)nc2n1CCCOCc1ccccc1`, in experiment [2], the pIC50 is 5.23.

`C[S+]([O-])c1ccc(Nc2nc(OCC3CCCCC3)c3nc[nH]c3n2)cc1` (stereo not given): the pIC50 in experiment [2] is 7.00.

In turn, `O=c1cc(N2CCOCC2)oc2c(-c3ccccc3)cccc12` gave a pIC50 in experiment [3] of 6.27.

In experiment [4], `Cc1c[nH]c2nccc(Oc3ccc(Nc4cc(Cl)nc(N)n4)cc3F)c12` showed a pIC50 of 8.15.
